Literature values in patent publication USRE32098E (Research and Education Institute, Inc., priority 1978, dated 1986).

System: proteins such as thyroxine-binding globulin (TBG), prealbumin (TBPA) and albumin
Details: cited from earlier work

## N[C@@H](Cc1cc(I)c(Oc2cc(I)c(O)c(I)c2)c(I)c1)C(=O)O [T4, thyroxine]
  bound to proteins in normal human serum: about 99.97%
Normal human serum
  present as unbound (dialyzable or free) hormone: 0.03%
